Data on 1 protein can be found in publication PMC11601504 (bioRxiv, 2024).

This data set concerns the molecule itself. Put plainly: negative-stain electron microscopy.

B1: Mouse Thorase (residues 41–361), wild type (enzyme)
chain: IDPTRKQKVEAQKQAEKLMKQIGVKNVKLSEYEMSIAAHLVDPLNMHVTWSDIAGLDDVITDLKDTVILPIKKKHLFENSRLLQPPKGVLLYGPPGCGKTLIAKATAKEAGCRFINLQPSTLTDKWYGESQKLAAAVFSLAIKLQPSIIFIDEIDSFLRNRSSSDHEATAMMKAQFMSLWDGLDTDHSCQVIVMGATNRPQDLDSAIMRRMPTRFHINQPALKQREAILKLILKNENVDRHVDLLEVAQETDGFSGSDLKEMCRDAALLCVREYVNSTSEESHDEDEIRPVQQQDLHRAIEKMKKSKDAAFQNVLTHVCLD
Consider B1, for which the binding result is on record as “binds”.
